{
  "sequences": {"note": "By UniProt entry, the sequences of proteins in these tests, tags left out.", "UniProt O43613, whole entry": "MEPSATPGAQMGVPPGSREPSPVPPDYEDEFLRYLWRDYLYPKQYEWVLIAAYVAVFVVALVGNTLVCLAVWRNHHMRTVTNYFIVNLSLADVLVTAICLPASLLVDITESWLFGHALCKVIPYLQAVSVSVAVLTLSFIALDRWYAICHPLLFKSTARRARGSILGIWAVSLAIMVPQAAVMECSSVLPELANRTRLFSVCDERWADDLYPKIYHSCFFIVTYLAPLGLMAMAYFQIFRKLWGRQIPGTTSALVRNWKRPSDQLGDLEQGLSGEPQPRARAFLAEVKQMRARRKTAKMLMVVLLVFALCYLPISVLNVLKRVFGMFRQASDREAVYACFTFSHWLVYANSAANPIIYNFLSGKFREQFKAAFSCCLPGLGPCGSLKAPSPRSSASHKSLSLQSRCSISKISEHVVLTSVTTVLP"},
  "source": "patent US9493432B2",
  "about": "“Cyclopentylbenzamide derivatives and their use for the treatment of psychotic and cognitive disorders” (Takeda Pharmaceutical Company Limited, priority 2013, dated 2016)",
  "target": "human orexin receptor 1 (Homo sapiens (Human), UniProt O43613)",
  "assay": "Orexin antagonist activity, intracellular calcium FLIPR assay (orexin receptor 1)",
  "format": "cell-based",
  "conditions": "RBL-2H3 cells stably expressing human orexin receptor 1; Ca2+ dye FLIPR; compound 15 minutes before orexin-A at approximately 80% maximal response; read-out: Human Orexin1R IC50",
  "method": "Orexin antagonist activity was determined by measuring changes in intracellular calcium levels using a Ca^2+ sensitive fluorescent dye. The changes in fluorescent signal were monitored by Fluorescent Imaging Plate Reader (FLIPR™) technology available from Molecular Devices, LLC, U.S.A. Orexin mediated increases in intracellular Ca^2+ concentration were readily detected upon activation with orexin-A. Twenty-four hours prior to the assay, RBL-2H3 cells stably expressing either human orexin receptor 1 or human orexin receptor 2 were seeded in cell culture medium in black, clear-bottom 384-well plates (commercially available from Corning Inc., U.S.A.) and grown overnight at 37° C., 5% CO2. On the day of the assay, cell culture media was removed and cells were loaded with Calcium 5 Dye (commercially sold by Molecular Devices, LLC, U.S.A.) for 1 hour at 37° C., 5% CO2. Test compounds (at 10 point half log concentration response curves from 10 μM) were added to cells for 15 minutes prior to the addition of orexin-A to all wells, to achieve a final concentration that produces approximately an 80% maximal response. The IC50 values were determined from ten point concentration response curves. Curves were generated using the average of two wells for each data point.",
  "data": [
    {"substance": "5-Methyl-N-((1S,2S)-2-(quinoxalin-2-ylamino)cyclopentyl)-2-(2H-1,2,3-triazol-2-yl) benzamide [Example 21]", "values": [
      {"measurement": "IC50", "result": 18, "unit": "nM"}
    ]}
  ]
}
